Legend:
[1] = target: hα2A receptor (Homo sapiens, UniProt P08913); assay: Radioligand binding experiment for α2A-adrenoceptor ([3H]raulwolscine, CHO cell membranes); conditions: [3H]raulwolscine binding
[2] = target: hα2C receptor (Homo sapiens, UniProt P18825); assay: Radioligand binding experiment for α2C-adrenoceptor ([3H]raulwolscine, CHO cell membranes); conditions: [3H]raulwolscine binding
[3] = target: 5HT-Transporter (Homo sapiens, UniProt P31645); assay: Binding experiment for the 5HT-transporter ([3H]paroxetine, human platelet membranes); conditions: [3H]paroxetine 0.5 nM

Chains of the proteins cited; added tags and fusions are not shown.
UniProt P08913, whole entry: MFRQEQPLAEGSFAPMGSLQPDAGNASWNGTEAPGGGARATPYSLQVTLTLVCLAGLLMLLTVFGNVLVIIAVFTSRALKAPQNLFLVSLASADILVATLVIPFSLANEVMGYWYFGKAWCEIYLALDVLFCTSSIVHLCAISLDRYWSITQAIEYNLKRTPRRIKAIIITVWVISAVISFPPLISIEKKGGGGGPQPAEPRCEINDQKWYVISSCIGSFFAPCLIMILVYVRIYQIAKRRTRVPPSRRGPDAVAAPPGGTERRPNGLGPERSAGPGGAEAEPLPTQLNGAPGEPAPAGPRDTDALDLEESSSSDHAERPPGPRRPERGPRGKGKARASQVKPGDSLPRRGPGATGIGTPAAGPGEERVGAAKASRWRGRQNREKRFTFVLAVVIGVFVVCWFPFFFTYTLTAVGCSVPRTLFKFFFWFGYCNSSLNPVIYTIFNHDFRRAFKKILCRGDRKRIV
UniProt P18825, whole entry: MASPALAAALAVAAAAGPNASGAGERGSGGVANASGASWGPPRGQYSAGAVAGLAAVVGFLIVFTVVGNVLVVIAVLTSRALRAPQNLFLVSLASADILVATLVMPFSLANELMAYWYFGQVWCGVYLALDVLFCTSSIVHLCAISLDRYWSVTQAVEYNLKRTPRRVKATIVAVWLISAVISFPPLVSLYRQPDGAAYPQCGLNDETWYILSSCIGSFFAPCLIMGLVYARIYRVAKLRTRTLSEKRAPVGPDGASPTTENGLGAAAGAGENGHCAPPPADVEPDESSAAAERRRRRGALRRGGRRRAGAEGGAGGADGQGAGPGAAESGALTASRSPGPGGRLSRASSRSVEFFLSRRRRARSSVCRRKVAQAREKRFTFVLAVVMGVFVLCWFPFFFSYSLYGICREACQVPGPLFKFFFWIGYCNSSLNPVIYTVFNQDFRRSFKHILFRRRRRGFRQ
UniProt P31645, whole entry: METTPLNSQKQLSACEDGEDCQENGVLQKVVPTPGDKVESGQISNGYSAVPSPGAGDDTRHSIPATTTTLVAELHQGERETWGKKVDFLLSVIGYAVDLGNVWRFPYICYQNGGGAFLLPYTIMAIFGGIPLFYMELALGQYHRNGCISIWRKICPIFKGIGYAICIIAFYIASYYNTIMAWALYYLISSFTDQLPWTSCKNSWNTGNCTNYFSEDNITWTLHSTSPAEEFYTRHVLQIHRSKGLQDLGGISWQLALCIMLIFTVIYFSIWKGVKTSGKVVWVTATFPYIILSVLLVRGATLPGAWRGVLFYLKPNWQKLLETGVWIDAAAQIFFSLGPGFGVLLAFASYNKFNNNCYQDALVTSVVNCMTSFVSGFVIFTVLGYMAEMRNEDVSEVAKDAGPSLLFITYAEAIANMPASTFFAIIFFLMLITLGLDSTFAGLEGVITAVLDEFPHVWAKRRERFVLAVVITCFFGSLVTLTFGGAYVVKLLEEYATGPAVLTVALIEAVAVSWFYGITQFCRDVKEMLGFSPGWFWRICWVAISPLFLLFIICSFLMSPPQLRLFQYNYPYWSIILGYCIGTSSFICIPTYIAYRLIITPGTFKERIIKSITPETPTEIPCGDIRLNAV

Structure (SMILES)	h-α2A pIC50 ([1]; tested form: 2HCl)	h-α2C pIC50 ([2]; tested form: 2HCl)	h-5HTT pIC50 ([3]; tested form: 2HCl)	h-α2A pIC50 [1]	h-α2C pIC50 [2]	h-5HTT pIC50 [3]
C/C(=C\c1ccccc1)CN1CCC(Nc2ncc[nH]c2=O)CC1 [7-1]	6.9	7.6	<5			
CCCn1ccnc(NC2CCN(C/C=C/c3ccccc3)CC2)c1=O				6.1	6.6	5.2
C/C(=C\c1ccccc1)CN1CCN(c2nccn(CC(c3ccccc3)c3ccccc3)c2=O)CC1				6.2	6.8	5.4

From patent US20090111801A1, “SUBSTITUTED PYRAZINONE DERIVATIVES FOR USE AS A MEDICINE” (Janssen Pharmaceutica N.V., priority 2006, published 2009)
